The values below are quoted from earlier work in patent US20260166031A1, “Methods of Treating Lipedema and Lymphatic Disease of the Subcutaneous Tissue” (Celltaxis, LLC, priority 2023, published 2026).

For this data set, the system named is other metalloenzymes. The conditions noted are these: Bhatt et al. (2017); cited from earlier work.

Consider `O=C(O)c1ccc(CN2C[C@@H]3C[C@H]2CN3Cc2ccc(Oc3ccc(-c4ncco4)cc3)cc2)cc1` [acebilustat, 4-{[(1S,4S)-5-({4-[4-oxazol-2-yl-phenoxy]phenyl}methyl)-2,5-diazabicyclo[2.2.1]heptan-2-yl]methyl}benzoic acid], for which the “selectivity for LTA4H versus other metalloenzymes” value is “highly selective”.
